Results on 1 compound are retold here after patent publication US6403329B1, “Methods of detecting methylphosphonic compounds” (dated 2002).

The assay concerns cholinesterase. Briefly: Micro spot test using 1,3-dicyclohexylcarbodiimide with M-272 detector ticket test for cholinesterase inhibitors. To be noted: M-272 enzyme disc; control (analyte level=0) contains a white spot.

Molecules are shown by their SMILES.

Take `C(=NC1CCCCC1)=NC1CCCCC1`: the “Cholinesterase inhibition (in words)” value was “weak cholinesterase inhibitor”.
